Binding of CDR-mutated scFvs to a peptide of the spike HR2 region

The measurements come from Engelhart et al. 2022 (doi:10.1038/s41597-022-01779-4) through the FLAb antibody collection.

Binding partner: SARS-CoV-2 spike HR2 peptide, sequence PDVDLGDISGINAS.

The variants keep the heavy chain, the linker and the frameworks of Ab-95 (scFv order VH, a 15-residue (Gly4Ser)3 linker, VL).
VH: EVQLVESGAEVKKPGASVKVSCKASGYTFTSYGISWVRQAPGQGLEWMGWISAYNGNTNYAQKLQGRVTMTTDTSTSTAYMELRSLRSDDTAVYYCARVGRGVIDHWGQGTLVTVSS
VL: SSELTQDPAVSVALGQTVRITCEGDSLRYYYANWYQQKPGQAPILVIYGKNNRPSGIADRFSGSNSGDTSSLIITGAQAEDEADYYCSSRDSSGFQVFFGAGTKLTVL

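The starting antibody came from a phage panning campaign against this peptide. The library (AAYL52) carries one to three amino acid substitutions per variant, with no insertions or deletions. The assay is AlphaSeq: two haploid yeast populations carry antibody and antigen on their surface. The frequency of each diploid, read from paired DNA barcodes, reflects how well the two displayed proteins bind. Read counts were normalised to the haploid input and turned into Kd by a linear fit to BCL2-family pairs of known affinity, for each replicate. Mating was done three times.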

Positions count from residue 1 of the parent VL; R28W puts W in place of R. Values are log10 of the apparent Kd in nM; lower means stronger binding. "ND" marks a missing value. The strain was present, yet no cells mated with the target were sequenced in that replicate, which points to weak or no binding. For reference, the parent read 2.31 as the reference entry and 2.25 as a member of this library. As a blank, each scFv also met three strains without target: over library AAYL52, 28% of these pairings were detected, typically at 3.91 and seldom below 2.90. For each scFv, signals with the empty controls are counted beside the result, with their mean in brackets.

| changes | log10 Kd (nM) by replicate | signal with controls |
|---|---|---|
| R28W+N33P+G49N | 4.93 / ND / ND | 2/9 (4.02) |
| G24M+K50H+S92D | 2.09 / 2.03 / 2.13 | 2/9 (4.19) |
| G24C+D25K+D91K | 3.66 / 3.88 / 3.12 | 3/9 (4.80) |
| E23C+L27A+V97P | ND / ND / ND | 0/9 |
| D25Q | 1.81 / 1.97 / 1.83 | 5/9 (3.75) |
| Y29M+A32Y+N33L | 4.53 / 3.96 / ND | 6/9 (4.01) |
| R28F+Y31F | 4.05 / 3.10 / 2.26 | 2/9 (4.52) |
| A32M+D91W+F95K | 4.66 / ND / ND | 7/9 (3.90) |
| G24Q+Y30R+S55E | 2.06 / 2.00 / 1.81 | 3/9 (4.32) |
| Y31L+R53Y+R90I | 4.68 / ND / ND | 1/9 (4.37) |
| A32S+G94E+V97L | 2.51 / 2.24 / 2.70 | 2/9 (3.43) |
| P54Y+D91V | 4.52 / 4.78 / 2.72 | 4/9 (3.53) |
| R28T+S88V+S89D | 2.28 / 3.09 / 2.32 | 1/9 (3.63) |
| L27F+K50G+F98C | 3.01 / 3.28 / 3.15 | 4/9 (3.62) |
| D25S+G49R | 3.42 / 3.90 / 4.22 | 4/9 (3.58) |
| Y30P+R53E+S93Q | 3.88 / ND / ND | 0/9 |
| E23K+N33A+G94D | ND / ND / ND | 3/9 (3.56) |
| E23K+G49W+V97H | 5.51 / ND / ND | 3/9 (3.91) |
| Y30A+R53P+S93F | ND / ND / ND | 1/9 (3.75) |
| D25S+N51S+P54H | 3.30 / 2.84 / 3.12 | 1/9 (3.99) |
| D25C+N51G+S92F | 4.16 / 4.06 / 4.64 | 5/9 (3.98) |
| G24P+A32L+S88L | ND / 3.85 / 4.25 | 5/9 (4.52) |
| D25W+R28V+S89G | 2.53 / 3.28 / ND | 3/9 (3.84) |
| S26I+G49W+R53A | ND / 5.38 / 2.97 | 5/9 (3.86) |
| L27R+A32G+G49I | ND / 5.75 / ND | 1/9 (3.14) |
| E23S+N51D+N52C | 3.91 / 5.83 / ND | 3/9 (4.02) |
| K50H+F95G+F98L | 3.44 / 2.69 / 2.83 | 0/9 |
| E23V+N33R+R90E | 3.50 / 4.77 / ND | 2/9 (3.96) |
| G24F+N33K+F98W | ND / ND / 4.86 | 5/9 (3.97) |
| D25P+N33V+F95Q | ND / 5.40 / 4.25 | 2/9 (4.69) |
| L27E+N52R+D91M | 4.51 / 3.35 / 3.97 | 8/9 (3.96) |
| G24C+S89H+V97S | ND / ND / ND | 3/9 (4.64) |
| N51S+S55E+G94Q | ND / ND / ND | 0/9 |
| G49K+N51P+S88Y | ND / ND / ND | 0/9 |
| K50A+N52F+S93I | 2.83 / 3.71 / ND | 1/9 (4.21) |
| D91K+S93M+F98H | ND / ND / ND | 0/9 |
| S26G+Y31C+P54D | 2.26 / 2.64 / 2.75 | 0/9 |
| D25M+Q96N | 2.20 / 2.73 / 2.02 | 4/9 (3.86) |
| N52K+P54L+S93W | 3.77 / 3.82 / ND | 3/9 (4.78) |
| A32P+N52D+S92G | 3.07 / 4.27 / ND | 0/9 |
| N33F+S89N+F95R | 3.81 / 3.70 / ND | 4/9 (3.62) |

Again, the first 4 entries without any signal:

| changes | log10 Kd (nM) by replicate | signal with controls |
|---|---|---|
| E23C+L27A+V97P | ND / ND / ND | 0/9 |
| E23K+N33A+G94D | ND / ND / ND | 3/9 (3.56) |
| Y30A+R53P+S93F | ND / ND / ND | 1/9 (3.75) |
| G24C+S89H+V97S | ND / ND / ND | 3/9 (4.64) |